Measurements taken from ChEMBL document CHEMBL1139831, “The influence of modifications in imide fragment structure on 5-HT(1A) and 5-HT(7) receptor affinity and in vivo pharmacological properties of some new 1-(m-trifluoromethylphenyl)piperazines” (Bioorg Med Chem, 2007).

Legend:
Mus musculus [1] = organism: Mus musculus; details: Swiss Albino, 5 mg/kg
Mus musculus [2] = organism: Mus musculus; details: Swiss Albino, 5 mg/kg; remark: listed apart in the source
Mus musculus [3] = organism: Mus musculus; details: Swiss Albino, 0.1 mg/kg
Mus musculus [4] = organism: Mus musculus; details: Swiss Albino, 0.1 mg/kg; remark: listed apart in the source
Mus musculus [5] = organism: Mus musculus; details: Swiss Albino, 0.1 mg/kg; remark: listed apart in the source
Mus musculus [6] = organism: Mus musculus; details: Swiss Albino, 0.1 mg/kg; remark: listed apart in the source

In the case of CCCN(CCC)C1CCc2cccc(O)c2C1 (stereo unspecified), the deltaT (Mus musculus [1]) is reported as -0.1 °C and the deltaT (Mus musculus [2]) is reported as 0.2 °C.
COc1ccccc1N1CCN(CCN(C(=O)C2CCCCC2)c2ccccn2)CC1 [WAY-100,635] was tested, and the deltaT (Mus musculus [3]) was 0.1 °C, the deltaT (Mus musculus [4]) was 0.1 °C and the deltaT (Mus musculus [5]) was -0.1 °C. It also gave a deltaT (Mus musculus [6]) of -0.1 °C.
